The values below come from US20030149005A1, “24-sulfur-substituted analogs of 1alpha, 25-dihydroxy vitamin D3” (priority 2001, published 2003).

The structures appear in SMILES notation.

The test addresses T1, CYP24 (Homo sapiens, UniProt Q07973).
T1 construct: When the HPK1A-ras cells are 80-90% confluent, add 1 μL 10^−5 M 1,25(OH)2D3 to 1 mL medium; endogenous in cells; host or cells: HPK1A-ras cells induced with 10^-8 M 1,25(OH)2D3
T1 sequence (Q07973 36-514): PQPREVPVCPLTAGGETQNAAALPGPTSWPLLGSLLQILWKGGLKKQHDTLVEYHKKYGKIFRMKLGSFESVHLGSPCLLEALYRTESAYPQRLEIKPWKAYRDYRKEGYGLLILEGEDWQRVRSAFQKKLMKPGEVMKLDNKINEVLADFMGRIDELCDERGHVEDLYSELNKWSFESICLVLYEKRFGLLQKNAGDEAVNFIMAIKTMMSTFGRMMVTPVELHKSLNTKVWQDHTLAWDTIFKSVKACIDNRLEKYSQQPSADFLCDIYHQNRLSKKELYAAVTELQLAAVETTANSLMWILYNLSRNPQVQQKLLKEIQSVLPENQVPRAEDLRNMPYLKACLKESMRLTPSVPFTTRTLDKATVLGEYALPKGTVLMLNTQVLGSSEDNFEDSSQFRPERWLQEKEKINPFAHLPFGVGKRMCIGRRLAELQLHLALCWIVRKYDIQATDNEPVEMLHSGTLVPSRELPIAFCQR
In words: CYP24 enzyme assay (induced HPK1A-ras cells). Type of test: cell-based. Particulars: [3H]-1,25(OH)2D3 substrate. The protocol:
CYP24 Enzyme Assay (Induced KPK1A-ras Cells)
(i) Material and Reagents:
Saturated KCl: KCl 30 g, H2O400 ml
1. Induction of HPK1A-ras cells (The day before assay)
When the HPK1A-ras cells are 80-90% confluent, add 1 μL 10^−5 M 1,25(OH)2D3 to 1 mL medium in the plate (final concentration is 10^−8 M).
2. Preparation of cell suspension
After 18 to 20 hours induction, remove the medium and wash the cell twice with PBS. Then tripsinize the cells from plate, centrifuge (2,000 rpm, 5 min) and suspend cells pellet in DMEM medium+1%BSA.
Count the cells and adjust cells density to 250,000/150 μL, add 150 μL cell suspension to each well in 48-well plate. (including 3 well as no cell control, and 3 well cells without drug or inhibitor as control).
3. Add 25 μL ketoconazole (final concentration 10^−5 M, 10^−6 M, 10^−7 M, 10^−1 M) or drugs into each designated well. Keep the plate in 37° C. for 10 min.
4. Preparation of substrate
Take certain amount of DMEM+1%BSA medium (25*Well number+200) μL to a tube, add certain amount of 3H-1,25(OH)2D3 (well number+2) μL and certain amount of 100 mM DPPD (well number/5) μL and mix them by vortex.
Add 25 mL substrate to each well, incubate the plate at 37° C. for 3 hour.
Add 25 mL substrate to counting plate (2 well) as a total count.
6. Lipid extraction and counting
Add 500 μL methanol to each well to stop the reaction, transfer them to tube […]

On to `C=C1/C(=C\C=C2/CCC[C@]3(C)[C@@H]([C@H](C)CCS(=O)(=O)c4ccccc4)CC[C@@H]23)C[C@@H](O)C[C@@H]1O` [I(a)], for which the IC50 – broadly, the concentration at which inhibition is half-maximal – turned out to be 28 nM.
